Values joined by “and” are separate entries in the source; they are usually repeats but may differ in a detail not shown here. Identical values can stand only once.
System: parkinsonian marmosets (MPTP)
Experiment: Dyskinesic score in MPTP-treated marmosets under chronic L-DOPA
Format: in vivo, Callithrix jacchus
Parameters: Total dyskinesic score, individual values: scale not given here
Conditions: for Total dyskinesic score, individual values: riluzole 2 × 10 mg/kg p.o. + L-DOPA (Group 2), marmosets 4-6, 10 mg/kg
Description: The marmosets have free access to water and have available each day 35 g of food rich in carbohydrates, proteins and vitamins mixed with water, milk and sugar and also fresh fruit.
All the animals receive 3 injections of 2 mg/kg of MPTP by the subcutaneous route, on days 1, 7 and 32. On day 32, the animals are divided into 2 groups.
The dyskinesic score is determined according to a number of parameters and each with a different degree of intensity: […]

Nc1nc2ccc(OC(F)(F)F)cc2s1 [riluzole, 2-amino-6-trifluoromethoxybenzo-thiazole]
Effect on dyskinesias induced by L-DOPA (in words) (riluzole 10 mg/kg oral, twice per day, day 57 to day 104): reduces the dyskinesias induced by L-DOPA | Total dyskinesic score, individual values (day 57 after 1st MPTP, 30 min after 1st daily L-DOPA): 3 (2×) and 1 | Total dyskinesic score, individual values (day 57 after 1st MPTP, 2 h after 1st daily L-DOPA): 3 (2×) and 0 | Total dyskinesic score, individual values (day 60 after 1st MPTP, 30 min after 1st daily L-DOPA): 3 (2×) and 1 | Total dyskinesic score, individual values (day 60 after 1st MPTP, 2 h after 1st daily L-DOPA): 2 and 3 and 1 | Total dyskinesic score, individual values (day 67 after 1st MPTP, 30 min after 1st daily L-DOPA): 3 (2×) and 1 | Total dyskinesic score, individual values (day 67 after 1st MPTP, 2 h after 1st daily L-DOPA): 3 (2×) and 1 | Total dyskinesic score, individual values (day 104 after 1st MPTP, 30 min after 1st daily L-DOPA): 1 and 3 (2×) | Total dyskinesic score, individual values (day 104 after 1st MPTP, 2 h after 1st daily L-DOPA): 1 and 3 (2×)

— patent US6387936B1, “Combinations of riluzole and levodopa for the treatment of Parkinson's disease” (Aventis Pharma S.A., priority 1998, dated 2002)
